In the test the target is hENPP2 (UniProtKB/SwissProt Q13822) (Homo sapiens (Human), UniProt Q13822). In words: hENPP2 biochemical assay, LPC as substrate. To be noted: LPC (palmitoyl 16:0) as substrate. On the procedure: The principle of the assay consists in quantifying the released choline with an enzymatic method using choline oxidase and peroxidase. Choline oxydation by choline oxydase releases betaine and peroxide. The latter is quantified in presence of HRP that converts the peroxide detection agent TOOS and 4-aminoantipyrine into quinoneimine dye. The appearance of quinoneimine dye is measured spectrophotometrically at 555 nm and is proportional to the amount of choline released by ENPP2. Inhibition of ENPP2 will result in a decrease of the signal.
Compound IC50 values are determined in a hENPP2 (UniProtKB/SwissProt Sequence ref Q13822) biochemical assay using LPC as substrate.
The enzyme is diluted in 50 mM Tris-HCl pH 8.5, 500 mM NaCl, 5 mM KCl, 10 mM CaCl2, 0.1% fatty acid free BSA in a total volume of 10 μL. the reaction is started by the addition of 10 μL of 150 μM LPC (palmitoyl 16:0) diluted in the same buffer as described above and the mixture is incubated at 37° C. for 30 min. The reaction is terminated and choline quantified by the addition of a 25 μL of a mixture containing 0.6 U/mL of choline oxidase, 0.6 U/mL of peroxydase, 1.8 mM TOOS, 1.2 mM amino-antipyrine, 20 mM EGTA (stop-developer solution) diluted in the buffer described above. […] is read on the Envision after an incubation of 30 min at room temperature (Excitation 555 nm, excitation light=70%).

One may read the IC50 as the point on the concentration scale where inhibition reaches its midpoint. Read a low IC50 as greater potency in that assay. Consider “{2-[4-(2-Ethyl-3-{[4-(4-fluoro-phenyl)-thiazol-2-yl]-methyl-amino}-imidazo[1,2-a]pyridin-6-yl)-piperazin-1-yl]-4, 5-dihydro-oxazol-5-yl}-methanol [Compound 222]”, for which the IC50 fell in the range of 500 to 1000 nM.

For the origin of these results see patent US9670204B2, “Compounds and pharmaceutical compositions thereof for the treatment of inflammatory disorders” (Galapagos NV, priority 2013, dated 2017).
